# Antibody variant affinities, Ab-14 heavy chain, assay B

From the AlphaSeq antibody data of Li et al. 2023 (doi:10.1038/s41467-023-39022-2), copy in the FLAb collection.

All variants were tested on one target, the spike HR2 peptide PDVDLGDISGINAS (SARS-CoV-2).

Each scFv is VH, the linker GGGGSGGGGSGGGGS, VL, as in the parent Ab-14, and differs from it in the CDRs of the heavy chain only.
VH: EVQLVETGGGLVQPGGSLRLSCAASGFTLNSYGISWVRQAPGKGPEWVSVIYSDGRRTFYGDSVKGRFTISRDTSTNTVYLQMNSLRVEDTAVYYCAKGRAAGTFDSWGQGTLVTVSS
VL: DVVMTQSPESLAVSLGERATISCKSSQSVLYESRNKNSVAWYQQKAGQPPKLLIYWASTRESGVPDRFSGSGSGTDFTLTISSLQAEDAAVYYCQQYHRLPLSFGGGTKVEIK

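The parent was found by panning a naive human phage display library on the peptide. Designed CDR sequences, proposed from the first random library and measured here. Group labels follow the data file (Ctrl: baseline library sampled from a position-specific scoring matrix, with some repeated check sequences; Rand: our label for a block that the file lists under HC and that is probably the random mutants of the ten best first-round binders; En: ensemble of fine-tuned language models; GP: Gaussian process model; GPLM: also part of the Gaussian process libraries; HC: hill climbing; Gen: genetic algorithm; Gibbs: Gibbs sampling; a sequence that several methods proposed may carry one label only). AlphaSeq pools MATa yeast showing the antibodies with MATalpha yeast showing the peptide. After mating in shaken culture at 30 °C for 16 h, diploids were selected and their barcode pairs sequenced. Read counts were normalised to the haploid input and turned into Kd by a linear fit to BCL2-family pairs of known affinity, for each replicate. Each pool was mated in six replicate cultures.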

Variants are written as CDR1, CDR2 and CDR3 of the heavy chain (limits as in the source). Parent: GFTLNSYGIS, VIYSDGRRTFYGDSVK, GRAAGTFDS.
Each Kd is an estimate from the mating assay, the geometric mean of the replicates in which the pair was seen; lower is stronger.
"not detected" means that the variant was in the library but no mating with the target was seen in any replicate; the authors take this as a sign of poor binding, and no number exists.

{"CDR-H1": "GFTLNSYGIS", "CDR-H2": "VIYSDGRRTFYGDQVK", "CDR-H3": "GSEAGAFDS", "group": "Ctrl", "Kd": "not detected", "replicates with signal": "0/6", "control signals": "0/18"}
{"CDR-H1": "GFDLNEYGIS", "CDR-H2": "VIYADGRRTAYADSVK", "CDR-H3": "GETAGTFDL", "group": "En_Gen", "Kd": "25 nM", "replicates with signal": "5/6", "control signals": "1/18"}
{"CDR-H1": "GFDLNEYGIS", "CDR-H2": "VIYADGMRTAYADNVK", "CDR-H3": "GEVAGTFDT", "group": "En_Gen", "Kd": "260 pM", "replicates with signal": "6/6", "control signals": "0/18"}
{"CDR-H1": "GFDLNSYGIS", "CDR-H2": "VIYSDGRRTFYQDSVK", "CDR-H3": "GRSAGTFDS", "group": "GP_Gen", "Kd": "5.4 nM", "replicates with signal": "6/6", "control signals": "0/18"}
{"CDR-H1": "GFELDEYGIS", "CDR-H2": "VIYADGKRKAYDNAVK", "CDR-H3": "GFTGGVKLD", "group": "En_Gibbs", "Kd": "not detected", "replicates with signal": "0/6", "control signals": "0/18"}
{"CDR-H1": "GFDLNEYGIS", "CDR-H2": "VIYADGLRTAYVDSVK", "CDR-H3": "GNVAGTFDI", "group": "En_Gen", "Kd": "290 pM", "replicates with signal": "6/6", "control signals": "0/18"}
{"CDR-H1": "GFDLNSYGIS", "CDR-H2": "VIYSDGRRTFYSDSVK", "CDR-H3": "GRAGGSFDS", "group": "GPLM_HC", "Kd": "not detected", "replicates with signal": "0/6", "control signals": "1/18"}
{"CDR-H1": "GFSLNEYGIS", "CDR-H2": "VIYSDGRRTFYHDSVK", "CDR-H3": "GRAAGTFDN", "group": "GP_Gibbs", "Kd": "9.8 nM", "replicates with signal": "6/6", "control signals": "0/18"}
{"CDR-H1": "GFELNEYGIS", "CDR-H2": "VIYSDGRRTFYGDSVK", "CDR-H3": "GYAAGTFDS", "group": "Ctrl", "Kd": "13 nM", "replicates with signal": "5/6", "control signals": "0/18"}
{"CDR-H1": "GFHLNSYGIS", "CDR-H2": "VIYSDGRRTFYADDVK", "CDR-H3": "GEAAGTFDS", "group": "GP_Gibbs", "Kd": "1.9 nM", "replicates with signal": "2/6", "control signals": "0/18"}
{"CDR-H1": "GFDLNEYGIS", "CDR-H2": "VIYADGRRTFYSDSVK", "CDR-H3": "GEAGGTFDE", "group": "En_HC", "Kd": "2.1 nM", "replicates with signal": "5/6", "control signals": "0/18"}
{"CDR-H1": "GFDLNEYGIS", "CDR-H2": "VIYADGMRTFYTDSVK", "CDR-H3": "GEFAGTFDD", "group": "En_HC", "Kd": "5.4 nM", "replicates with signal": "6/6", "control signals": "2/18"}
{"CDR-H1": "GFTLNSYGIS", "CDR-H2": "VIYSDGRRTFYDDSVK", "CDR-H3": "SQLAGTFDS", "group": "Rand", "Kd": "58 nM", "replicates with signal": "4/6", "control signals": "0/18"}
{"CDR-H1": "GFSLNSYGIS", "CDR-H2": "VIYSDGRRTFYQDSVK", "CDR-H3": "GKVAGTFDS", "group": "GP_Gibbs", "Kd": "3.3 nM", "replicates with signal": "6/6", "control signals": "0/18"}
{"CDR-H1": "GFTLNEYGIS", "CDR-H2": "VIYADGRRTFYGDSVK", "CDR-H3": "GRAAATFDI", "group": "GP_HC", "Kd": "not detected", "replicates with signal": "0/6", "control signals": "0/18"}
{"CDR-H1": "GFTLESYGIS", "CDR-H2": "VIYSDGKRTFYADSVK", "CDR-H3": "GRTAGTFDS", "group": "GPLM_Gibbs", "Kd": "730 pM", "replicates with signal": "6/6", "control signals": "0/18"}
{"CDR-H1": "GFDLNEYGIS", "CDR-H2": "VIYADGRRTFYTDSVK", "CDR-H3": "GQVAGTFDS", "group": "En_HC", "Kd": "640 pM", "replicates with signal": "6/6", "control signals": "0/18"}
{"CDR-H1": "GFGLNEYGIS", "CDR-H2": "VIYSDGRRTFYGDSVK", "CDR-H3": "GREAGTFDS", "group": "GPLM_HC", "Kd": "760 pM", "replicates with signal": "6/6", "control signals": "0/18"}

The authors' rule: three or more of the six replicates give a measured affinity, fewer mean a poor binder.
As a blank, each scFv also met three strains without target: over all heavy chain designs, 1% of these pairings were detected, typically at 120 nM and seldom below 7.0 nM. For each scFv, signals with the empty controls are counted beside the result.
Of ten entries with the parent sequence, four were seen in most replicates (averages 2.2 nM to 240 nM), three in one and three in none, so single entries are noisy.
A sequence measured in both rounds can read differently, since the two assays cover different ranges.